Values quoted from earlier work in paper PMC3583384 (Journal of medicinal chemistry, 2012).

Columns and labels:
[1] = tested on: non-iron-overloaded bile duct-cannulated rats; conditions: rats po 300 µmol/kg, monosodium salt; cited from earlier work
iron overloaded primates = conditions: primates po 150 µmol/kg; cited from earlier work

Q: For `C[C@]1(C(=O)[O-])CSC(c2ccc(O)cc2O)=N1.[Na+]` [Compound 3, (S)-2-(2,4-dihydroxyphenyl)-4,5-dihydro-4-methyl-4-thiazolecarboxylic acid], which “relative percentages of the iron excreted in the bile and urine [bile/urine]” value [1] is on record?
A: 100/0

Q: What about the “relative percentages of the iron excreted in the feces and urine [feces/urine]” value (iron overloaded primates) of the same compound?
A: 88/12
